## logP (octanol/water) values, as collected for the OPERA models

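The numbers are reported measurements, compiled and curated for the OPERA QSAR suite. One number stands for a compound and property, with no spread given. Method and conditions are not stated for these values. The measured form (salt, isomer or mixture) is not always the one drawn. Some entries may be limits or estimates that an upstream database listed as plain numbers.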

The octanol-water partition coefficient is given as log10; larger values mean a more lipophilic compound.
"via" names the databases from which the curators took the value.

structure (SMILES)	log Kow	via
CC(C)(c1ccccc1)c1ccc(Nc2ccc(C(C)(C)c3ccccc3)cc2)cc1	7.9	eChemPortal
CCCCNc1cc(C(=O)O)cc(S(N)(=O)=O)c1Oc1ccccc1	2.6	PubChem
CCCCCCCC/C=C\CCCCCCCC[N+](C)(CCO)CCO.[Cl-]	2.41	eChemPortal
CCOC(=O)[C@@H]1[C@@H](C)CCCC1(C)C (stereo in doubt)	4.51	eChemPortal
O=S(=O)([O-])CCN1CCN(CCO)CC1.[Na+]	-3.88	eChemPortal
[Cr+2].[Cr+2].[NH-]c1ccc2c([O-])c(/N=N/c3cc([N+](=O)[O-])cc(S(=O)(=O)[O-])c3[O-])c(S(=O)(=O)[O-])cc2c1/N=N\c1cc(S(=O)(=O)[O-])cc(C(=O)[O-])c1[O-].[Na+].[Na+].[Na+].[Na+]	-2.5	eChemPortal
O=S(=O)([O-])CC(O)CNC1CCCCC1.[Na+] (configuration not stated)	-3.8	eChemPortal
C=C(C)OC	1.7	eChemPortal
CCCc1ccc(O)c(OC)c1	2.8	eChemPortal
CCCCCCCCCCCCS	6.35	eChemPortal
CCCCOCCOCCOC(=O)CCCCC(=O)OCCOCCOCCCC	3.24	eChemPortal
CCCCCOC(=O)CCCC	4.6	eChemPortal
CCc1nc(C)c[nH]1	1.13	eChemPortal
COc1ccc(N2CCN(c3ccc([N+](=O)[O-])cc3)CC2)cc1	3.4	eChemPortal
CC(=O)N[C@@H](C)C(N)=O	-1.52	OCHEM
CC(C)NCC(O)c1ccc(O)c(O)c1.Cl (configuration not stated)	-2.69	OCHEM
CC#C[C@]1(O)CC[C@H]2[C@@H]3CCC4=CC(=O)CCC4=C3[C@@H](c3ccc(N(C)C)cc3)C[C@@]21C	4.5	PubChem
COC(=O)c1cc(C(=O)OC)cc(S(=O)(=O)[O-])c1.[Na+]	-2.86	eChemPortal
Cc1ccc(S(=O)(=O)[O-])cc1.[Na+]	-3.18	eChemPortal
CCCc1ccc(-c2ccc(OCC)c(F)c2F)cc1	6.3	eChemPortal
CC[Si](ON=C(C)C)(ON=C(C)C)ON=C(C)C	0.2	eChemPortal
Clc1cc(-c2c(Cl)c(Cl)cc(Cl)c2Cl)cc(Cl)c1Cl	7.52	OCHEM
Cc1ccc(N(CC2=NCCN2)c2cccc(O)c2)cc1	3.3	PubChem
COc1ccc(OC)c([N+](=O)[O-])c1	1.88	eChemPortal
CCCCCCCCOC(=O)c1ccccc1C(=O)OCCCC	6.82	OCHEM
CCC1(CO)COC1	0.6	eChemPortal
Nc1c(OCCCCCCO)cc(O)c2c1C(=O)c1ccccc1C2=O	4.5	eChemPortal
C[SiH](C)c1ccccc1	3.99	OCHEM
NNc1ccc(Cl)cc1	1.4	eChemPortal
ClCc1ccc(-c2ccc(CCl)cc2)cc1	4.61	eChemPortal
O=C1C=CC(=O)N1C1CCCCC1	2.57	eChemPortal
O=C(O[C@@H]1C[C@@H]2C[C@@H]3C[C@H](C1)N2CC3=O)c1c[nH]c2ccccc12	2.1	PubChem
CC1(C)Nc2cccc3cccc(c23)N1	2.25	eChemPortal

A selection of 5 entries from above:

{"smiles": "O=S(=O)([O-])CC(O)CNC1CCCCC1.[Na+]", "stereo": "configuration not stated", "log Kow": "-3.8", "via": "eChemPortal"}
{"smiles": "CC(C)(c1ccccc1)c1ccc(Nc2ccc(C(C)(C)c3ccccc3)cc2)cc1", "log Kow": "7.9", "via": "eChemPortal"}
{"smiles": "CCCc1ccc(O)c(OC)c1", "log Kow": "2.8", "via": "eChemPortal"}
{"smiles": "CCOC(=O)[C@@H]1[C@@H](C)CCCC1(C)C", "stereo": "stereo in doubt", "log Kow": "4.51", "via": "eChemPortal"}
{"smiles": "CCCCCCCC/C=C\\CCCCCCCC[N+](C)(CCO)CCO.[Cl-]", "log Kow": "2.41", "via": "eChemPortal"}

Data: OPERA 2.9 data sets, kmansouri/OPERA on GitHub.